B1: RAC-alpha serine/threonine-protein kinase (Homo sapiens), P31749 (parent)
chain: MSDVAIVKEGWLHKRGEYIKTWRPRYFLLKNDGTFIGYKERPQDVDQREAPLNNFSVAQCQLMKTERPRPNTFIIRCLQWTTVIERTFHVETPEEREEWTTAIQTVADGLKKQEEEEMDFRSGSPSDNSGAEEMEVSLAKPKHRVTMNEFEYLKLLGKGTFGKVILVKEKATGRYYAMKILKKEVIVAKDEVAHTLTENRVLQNSRHPFLTALKYSFQTHDRLCFVMEYANGGELFFHLSRERVFSEDRARFYGAEIVSALDYLHSEKNVVYRDLKLENLMLDKDGHIKITDFGLCKEGIKDGATMKTFCGTPEYLAPEVLEDNDYGRAVDWWGLGVVMYEMMCGRLPFYNQDHEKLFELILMEEIRFPRTLGPEAKSLLSGLLKKDPKQRLGGGSEDAKEIMQHRFFAGIVWQHVYEKKLSPPFKPQVTSETDTRYFDEEFTAQMITITPPDQDDSMECVDSERRPHFPQFSYSASGTA
partner: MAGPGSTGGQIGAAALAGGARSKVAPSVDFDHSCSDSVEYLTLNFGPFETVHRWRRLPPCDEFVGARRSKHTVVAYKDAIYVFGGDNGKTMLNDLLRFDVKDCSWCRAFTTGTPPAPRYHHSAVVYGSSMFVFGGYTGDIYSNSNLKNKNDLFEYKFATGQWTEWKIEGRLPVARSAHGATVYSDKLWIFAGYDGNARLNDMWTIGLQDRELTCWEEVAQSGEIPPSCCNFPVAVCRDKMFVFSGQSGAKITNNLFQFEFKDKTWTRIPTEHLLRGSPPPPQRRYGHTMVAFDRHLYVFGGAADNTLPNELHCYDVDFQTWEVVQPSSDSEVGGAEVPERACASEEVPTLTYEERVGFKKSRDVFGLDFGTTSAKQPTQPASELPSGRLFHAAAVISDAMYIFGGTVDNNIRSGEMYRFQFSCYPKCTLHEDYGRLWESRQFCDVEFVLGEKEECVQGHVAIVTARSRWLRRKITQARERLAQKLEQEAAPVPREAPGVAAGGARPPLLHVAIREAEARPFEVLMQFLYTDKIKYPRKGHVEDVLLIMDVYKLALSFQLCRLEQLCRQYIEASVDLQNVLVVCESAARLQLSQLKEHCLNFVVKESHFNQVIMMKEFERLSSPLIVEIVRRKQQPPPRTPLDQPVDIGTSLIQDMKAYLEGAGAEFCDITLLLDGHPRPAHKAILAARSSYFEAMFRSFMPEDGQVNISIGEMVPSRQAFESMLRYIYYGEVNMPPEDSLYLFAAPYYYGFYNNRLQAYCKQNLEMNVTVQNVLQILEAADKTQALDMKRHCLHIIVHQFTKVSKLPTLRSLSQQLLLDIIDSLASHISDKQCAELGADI
B2: RAC-alpha serine/threonine-protein kinase (Homo sapiens), P31749 (parent)
chain: B1 chain
partner: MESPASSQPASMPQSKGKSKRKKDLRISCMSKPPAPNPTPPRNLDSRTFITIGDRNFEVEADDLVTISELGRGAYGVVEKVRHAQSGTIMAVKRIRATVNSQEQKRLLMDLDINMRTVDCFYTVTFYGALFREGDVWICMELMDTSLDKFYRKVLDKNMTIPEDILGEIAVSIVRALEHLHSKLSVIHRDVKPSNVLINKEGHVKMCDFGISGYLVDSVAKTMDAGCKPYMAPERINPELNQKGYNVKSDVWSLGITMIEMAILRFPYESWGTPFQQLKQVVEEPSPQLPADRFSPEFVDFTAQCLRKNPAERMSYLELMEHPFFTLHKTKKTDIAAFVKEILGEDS
B3: RAC-alpha serine/threonine-protein kinase (Homo sapiens), P31749 (parent)
chain: B1 chain
partner: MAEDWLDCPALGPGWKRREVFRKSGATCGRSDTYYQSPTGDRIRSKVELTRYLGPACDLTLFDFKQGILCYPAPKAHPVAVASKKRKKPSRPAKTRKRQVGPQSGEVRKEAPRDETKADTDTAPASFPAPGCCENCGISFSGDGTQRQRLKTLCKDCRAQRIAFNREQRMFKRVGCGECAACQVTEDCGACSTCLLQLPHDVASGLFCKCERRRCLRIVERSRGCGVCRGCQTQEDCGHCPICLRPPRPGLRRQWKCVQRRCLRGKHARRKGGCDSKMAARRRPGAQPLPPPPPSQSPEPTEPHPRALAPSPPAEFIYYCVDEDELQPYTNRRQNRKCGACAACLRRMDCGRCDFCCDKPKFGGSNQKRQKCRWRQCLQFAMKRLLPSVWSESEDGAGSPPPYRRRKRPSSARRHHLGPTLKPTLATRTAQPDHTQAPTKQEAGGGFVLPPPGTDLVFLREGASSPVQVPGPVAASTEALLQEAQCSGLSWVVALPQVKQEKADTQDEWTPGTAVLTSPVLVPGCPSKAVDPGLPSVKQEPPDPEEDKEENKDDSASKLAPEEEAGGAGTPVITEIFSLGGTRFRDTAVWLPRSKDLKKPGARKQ
B4: RAC-alpha serine/threonine-protein kinase (Homo sapiens), P31749 (parent)
chain: B1 chain
partner: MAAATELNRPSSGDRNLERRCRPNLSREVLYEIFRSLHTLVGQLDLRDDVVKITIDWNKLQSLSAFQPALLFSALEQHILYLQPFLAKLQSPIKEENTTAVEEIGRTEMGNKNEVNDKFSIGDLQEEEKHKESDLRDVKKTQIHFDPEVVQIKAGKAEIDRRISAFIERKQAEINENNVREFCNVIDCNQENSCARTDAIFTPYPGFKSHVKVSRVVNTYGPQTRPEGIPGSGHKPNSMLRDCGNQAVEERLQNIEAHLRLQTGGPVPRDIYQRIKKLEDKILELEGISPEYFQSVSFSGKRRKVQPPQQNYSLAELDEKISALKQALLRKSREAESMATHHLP
B5: RAC-alpha serine/threonine-protein kinase (Homo sapiens), P31749 (parent)
chain: B1 chain
partner: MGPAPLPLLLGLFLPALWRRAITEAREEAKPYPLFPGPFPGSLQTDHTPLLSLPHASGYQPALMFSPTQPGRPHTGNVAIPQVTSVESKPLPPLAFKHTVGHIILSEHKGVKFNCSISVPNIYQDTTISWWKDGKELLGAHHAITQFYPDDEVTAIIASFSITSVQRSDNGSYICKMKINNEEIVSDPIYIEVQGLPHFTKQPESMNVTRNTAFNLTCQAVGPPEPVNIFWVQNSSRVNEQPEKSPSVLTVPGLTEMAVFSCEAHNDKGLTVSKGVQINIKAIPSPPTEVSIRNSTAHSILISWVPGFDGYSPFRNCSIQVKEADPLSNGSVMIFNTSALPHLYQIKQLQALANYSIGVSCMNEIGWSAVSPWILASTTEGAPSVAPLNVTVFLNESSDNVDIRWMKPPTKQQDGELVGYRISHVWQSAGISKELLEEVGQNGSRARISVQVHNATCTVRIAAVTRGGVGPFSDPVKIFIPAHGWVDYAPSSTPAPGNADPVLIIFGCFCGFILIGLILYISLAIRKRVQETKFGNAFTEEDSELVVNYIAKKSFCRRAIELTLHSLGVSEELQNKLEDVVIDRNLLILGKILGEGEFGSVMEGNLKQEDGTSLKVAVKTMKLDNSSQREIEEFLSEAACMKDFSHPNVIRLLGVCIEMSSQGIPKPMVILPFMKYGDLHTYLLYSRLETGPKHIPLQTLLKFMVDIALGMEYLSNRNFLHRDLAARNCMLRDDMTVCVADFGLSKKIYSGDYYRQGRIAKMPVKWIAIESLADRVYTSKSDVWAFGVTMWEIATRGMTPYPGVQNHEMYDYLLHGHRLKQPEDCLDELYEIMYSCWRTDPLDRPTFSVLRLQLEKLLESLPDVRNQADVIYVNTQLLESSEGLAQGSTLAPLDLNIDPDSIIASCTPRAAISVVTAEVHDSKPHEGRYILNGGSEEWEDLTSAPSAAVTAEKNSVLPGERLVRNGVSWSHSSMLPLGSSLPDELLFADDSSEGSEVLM
B6: RAC-alpha serine/threonine-protein kinase (Homo sapiens), P31749 (parent)
chain: B1 chain
partner: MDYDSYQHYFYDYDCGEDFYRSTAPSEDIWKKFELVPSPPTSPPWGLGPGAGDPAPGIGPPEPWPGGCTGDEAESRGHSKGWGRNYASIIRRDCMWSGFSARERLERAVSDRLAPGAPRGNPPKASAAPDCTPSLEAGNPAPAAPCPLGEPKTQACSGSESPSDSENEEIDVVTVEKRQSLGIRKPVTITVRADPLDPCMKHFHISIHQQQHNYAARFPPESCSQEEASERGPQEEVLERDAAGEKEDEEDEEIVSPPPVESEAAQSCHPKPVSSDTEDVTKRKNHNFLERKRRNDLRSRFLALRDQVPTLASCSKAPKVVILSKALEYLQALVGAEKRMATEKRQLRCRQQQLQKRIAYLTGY
B7: RAC-alpha serine/threonine-protein kinase (Homo sapiens), P31749 (parent)
chain: B1 chain
partner: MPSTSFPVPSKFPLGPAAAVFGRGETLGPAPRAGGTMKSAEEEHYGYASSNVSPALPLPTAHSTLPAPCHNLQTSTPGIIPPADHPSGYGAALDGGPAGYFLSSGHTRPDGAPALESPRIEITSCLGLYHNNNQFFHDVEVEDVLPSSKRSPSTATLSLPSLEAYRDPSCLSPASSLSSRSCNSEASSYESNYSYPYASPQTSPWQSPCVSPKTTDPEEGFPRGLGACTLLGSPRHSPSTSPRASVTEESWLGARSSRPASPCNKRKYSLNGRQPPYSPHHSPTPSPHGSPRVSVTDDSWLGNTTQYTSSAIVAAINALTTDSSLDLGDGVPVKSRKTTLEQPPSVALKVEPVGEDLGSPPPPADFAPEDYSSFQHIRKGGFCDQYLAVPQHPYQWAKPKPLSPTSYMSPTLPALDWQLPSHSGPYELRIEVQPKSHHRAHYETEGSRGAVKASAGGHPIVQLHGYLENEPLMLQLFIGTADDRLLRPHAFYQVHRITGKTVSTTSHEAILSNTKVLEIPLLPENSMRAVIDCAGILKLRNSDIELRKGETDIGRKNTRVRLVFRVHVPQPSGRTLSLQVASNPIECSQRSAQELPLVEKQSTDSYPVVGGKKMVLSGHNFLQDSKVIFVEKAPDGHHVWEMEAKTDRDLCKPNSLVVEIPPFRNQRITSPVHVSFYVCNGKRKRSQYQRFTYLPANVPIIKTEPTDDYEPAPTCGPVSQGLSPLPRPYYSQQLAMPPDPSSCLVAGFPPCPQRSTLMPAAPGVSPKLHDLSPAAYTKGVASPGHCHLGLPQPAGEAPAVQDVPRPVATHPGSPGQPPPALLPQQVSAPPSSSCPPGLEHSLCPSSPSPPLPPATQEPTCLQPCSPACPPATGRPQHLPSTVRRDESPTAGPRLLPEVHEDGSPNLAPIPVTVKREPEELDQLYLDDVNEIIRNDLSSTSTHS
B8: RAC-alpha serine/threonine-protein kinase (Homo sapiens), P31749 (parent)
chain: B1 chain
partner: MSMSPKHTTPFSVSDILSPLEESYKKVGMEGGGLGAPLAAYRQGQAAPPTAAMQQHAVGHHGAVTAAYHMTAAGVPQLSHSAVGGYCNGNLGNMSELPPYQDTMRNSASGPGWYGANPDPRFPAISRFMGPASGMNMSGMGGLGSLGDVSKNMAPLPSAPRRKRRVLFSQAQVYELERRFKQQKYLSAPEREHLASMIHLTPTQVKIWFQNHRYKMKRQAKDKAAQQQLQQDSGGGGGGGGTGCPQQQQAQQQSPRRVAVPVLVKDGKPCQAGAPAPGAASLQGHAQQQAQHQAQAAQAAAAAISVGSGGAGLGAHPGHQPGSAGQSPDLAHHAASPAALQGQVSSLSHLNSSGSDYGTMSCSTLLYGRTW
B9: RAC-alpha serine/threonine-protein kinase (Homo sapiens), P31749 (parent)
chain: B1 chain
partner: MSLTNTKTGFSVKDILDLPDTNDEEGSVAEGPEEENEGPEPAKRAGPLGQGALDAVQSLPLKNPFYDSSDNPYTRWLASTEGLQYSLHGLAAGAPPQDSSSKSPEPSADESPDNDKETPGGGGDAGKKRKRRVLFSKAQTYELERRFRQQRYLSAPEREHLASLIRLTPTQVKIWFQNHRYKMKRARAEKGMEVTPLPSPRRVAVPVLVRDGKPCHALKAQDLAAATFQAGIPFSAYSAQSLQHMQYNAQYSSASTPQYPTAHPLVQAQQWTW
B10: RAC-alpha serine/threonine-protein kinase (Homo sapiens), P31749 (parent)
chain: B1 chain
partner: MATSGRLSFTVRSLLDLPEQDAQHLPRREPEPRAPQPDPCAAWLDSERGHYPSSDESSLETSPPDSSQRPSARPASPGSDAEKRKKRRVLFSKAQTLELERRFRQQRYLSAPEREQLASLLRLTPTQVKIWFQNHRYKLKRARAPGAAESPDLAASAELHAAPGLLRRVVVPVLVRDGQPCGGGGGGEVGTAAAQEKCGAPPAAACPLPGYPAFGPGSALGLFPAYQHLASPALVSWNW
B11: RAC-alpha serine/threonine-protein kinase (Homo sapiens), P31749 (parent)
chain: B1 chain
partner: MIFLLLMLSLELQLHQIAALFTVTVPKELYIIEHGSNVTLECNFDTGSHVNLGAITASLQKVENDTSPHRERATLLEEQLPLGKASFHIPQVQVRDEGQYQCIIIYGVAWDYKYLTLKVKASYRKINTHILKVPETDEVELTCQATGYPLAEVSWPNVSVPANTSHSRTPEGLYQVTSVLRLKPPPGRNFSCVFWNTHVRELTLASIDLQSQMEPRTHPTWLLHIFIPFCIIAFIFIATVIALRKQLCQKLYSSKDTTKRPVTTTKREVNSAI

Variants of: B1
Conditions: with lztr1_human LZTR1, Q8N653

Row | Variant | effect of a mutation on the interaction
1 | E17K | with no effect

Variants of: B2
Conditions: with mp2k3_human MAP2K3, P46734

Row | Variant | effect of a mutation on the interaction
2 | E17K | with no effect

Variants of: B3
Conditions: with mbd1_human MBD1, Q9UIS9

Row | Variant | effect of a mutation on the interaction
3 | E17K | with no effect

Variants of: B4
Conditions: with mbip1_human MBIP

Row | Variant | effect of a mutation on the interaction
4 | E17K | with no effect

Variants of: B5
Conditions: with mertk_human MERTK

Row | Variant | effect of a mutation on the interaction
5 | E17K | with no effect

Variants of: B6
Conditions: with mycl_human MYCL

Row | Variant | effect of a mutation on the interaction
6 | E17K | with no effect

Variants of: B7
Conditions: with nfac1_human NFATC1, O95644

Row | Variant | effect of a mutation on the interaction
7 | E17K | with no effect

Variants of: B8
Conditions: with nkx21_human NKX2-1, P43699

Row | Variant | effect of a mutation on the interaction
8 | E17K | with no effect

Variants of: B9
Conditions: with nkx22_human NKX2-2, O95096

Row | Variant | effect of a mutation on the interaction
9 | E17K | with no effect

Variants of: B10
Conditions: with nkx28_human NKX2-8, O15522

Row | Variant | effect of a mutation on the interaction
10 | E17K | with no effect

Variants of: B11
Conditions: with pd1l2_human PDCD1LG2, Q9BQ51

Row | Variant | effect of a mutation on the interaction
11 | E17K | with no effect

From IntAct's records for PubMed 35512704
